Measured values taken from PubChem BioAssay AID623 (Vanderbilt High Throughput Screening Facility, 2007).
This is a selection; strong and weak results do not stand in their true shares. The source made the active and inactive calls.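 Rule for the calls: active = NADPH fluorescence slope more negative than the mean of all samples by about 3 SD, 99.7% confidence; inactive = the rest.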

The chains behind the UniProt entries cited, without tags or fusion partners. Where a name states a change or a piece, a line headed by the entry shows the natural chain unless it says otherwise.
UniProt P62483: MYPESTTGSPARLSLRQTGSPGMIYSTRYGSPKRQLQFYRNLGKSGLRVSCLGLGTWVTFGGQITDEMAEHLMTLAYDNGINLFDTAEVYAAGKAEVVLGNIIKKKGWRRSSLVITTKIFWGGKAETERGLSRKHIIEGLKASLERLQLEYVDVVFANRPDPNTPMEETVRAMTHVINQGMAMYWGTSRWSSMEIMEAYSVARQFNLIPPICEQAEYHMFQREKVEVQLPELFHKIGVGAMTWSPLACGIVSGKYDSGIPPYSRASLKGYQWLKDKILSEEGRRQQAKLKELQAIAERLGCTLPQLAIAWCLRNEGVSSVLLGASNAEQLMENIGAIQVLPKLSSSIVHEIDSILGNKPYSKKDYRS

target: Voltage-gated potassium channel subunit beta-2 (Rattus norvegicus) (UniProt P62483); test: KvBeta positive modulators, primary screen, biochemical, NADPH fluorescence (AID 623); conditions: Recombinant KvBeta, NADPH fluorescence decrease slope, 10 min; at 10 µM; hits give low values;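 note: fluorescence intensity change per second fitted from 20 to 320 s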

Row | SMILES | NADPH fluorescence slope
1 | O=P(Nc1nccs1)(c1ccccc1)c1ccccc1 | inactive: -2.2e-05
2 | Cc1cccc(OCC(=O)OC2CN3CCC2CC3)c1 (configuration not stated) | inactive: -0.000101
3 | CCOP1(=S)c2c(C)nn(CCC#N)c2N=C(c2ccccc2F)N1C (configuration not stated) | inactive: 1.2e-05
4 | Cc1ccc(OCC(=O)OC2CN3CCC2CC3)cc1 (configuration not stated) | inactive: -1.2e-05
5 | Cc1nn(-c2ccccc2)c2c1P(=O)(N1CCOCC1)N(C)C(c1ccccc1)=N2 (configuration not stated) | inactive: 1.6e-05
6 | COP1(=S)c2c(C)nn(CCC#N)c2N=C(c2ccc(F)cc2)N1C (configuration not stated) | inactive: -3e-05
7 | O=C(COc1ccccc1)OC1CN2CCC1CC2 (configuration not stated) | inactive: -4.7e-05
